In patent publication US8283308B2, “Copolymer-stabilized emulsions” (The Regents of the University of California, priority 2007, dated 2012):

Test: Water solubility limit by diluting 15 mM stock solutions until optically clear
Type: physicochemical
Conditions: diluting 15 mM stock until optically clear

## Poly(L-lysine-HBr)40-b-poly(rac-leucine)20 [K40(rac-L)20]
  Water Solubility Limit: 3.0 mM
